Tested on: Mycobacterium smegmatis
Assay: Periodate extraction method, release of DNA from Mycobacterium smegmatis
Conditions: heating at 80° C. for about 20 min

[O-][I+3]([O-])([O-])O [Periodate, sodium (meta)periodate]
release of DNA: about 100%

From US11046949B2, “Method and system for microbial lysis using periodates” (priority 2014, dated 2021)
